These results are taken from US20250163038A1, “CBL-B MODULATORS AND USES THEREOF” (Nimbus Clio, Inc., priority 2021, published 2025).

Chains of the proteins cited; added tags and fusions are not shown. Residues count along the entry.
UniProt Q13191, 36-427 limits assumed: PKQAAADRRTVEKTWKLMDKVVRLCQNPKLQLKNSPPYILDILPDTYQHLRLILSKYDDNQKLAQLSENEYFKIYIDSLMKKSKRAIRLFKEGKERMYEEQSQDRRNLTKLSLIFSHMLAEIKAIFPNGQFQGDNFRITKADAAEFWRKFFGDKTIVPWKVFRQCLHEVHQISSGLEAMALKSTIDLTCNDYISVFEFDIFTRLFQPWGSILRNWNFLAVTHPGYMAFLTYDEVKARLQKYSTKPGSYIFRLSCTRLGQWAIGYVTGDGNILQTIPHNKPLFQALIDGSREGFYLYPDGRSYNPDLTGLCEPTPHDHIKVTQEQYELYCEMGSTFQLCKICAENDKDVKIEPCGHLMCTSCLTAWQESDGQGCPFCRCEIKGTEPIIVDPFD
UniProt P22681, 47-435 limits assumed: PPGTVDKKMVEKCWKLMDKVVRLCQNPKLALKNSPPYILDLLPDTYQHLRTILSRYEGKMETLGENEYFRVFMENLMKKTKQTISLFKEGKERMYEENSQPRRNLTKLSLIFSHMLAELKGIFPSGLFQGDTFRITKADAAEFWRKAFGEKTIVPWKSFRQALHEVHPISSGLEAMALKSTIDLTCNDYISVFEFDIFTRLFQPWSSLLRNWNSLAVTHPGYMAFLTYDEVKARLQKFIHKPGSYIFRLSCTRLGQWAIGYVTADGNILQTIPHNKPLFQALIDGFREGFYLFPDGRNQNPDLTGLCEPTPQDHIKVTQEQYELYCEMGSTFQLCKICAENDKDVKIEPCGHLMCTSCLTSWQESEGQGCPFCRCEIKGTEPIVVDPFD

Structures are written as SMILES. pEC50, pIC50: −log10 of the molar value.

One may read the pIC50 as −log10 of the IC50, conventionally taken in molar units. As usually defined, the pEC50 is the negative decadic logarithm of the EC50, by convention in mol/L.

Test [1] deals with Recombinant human Cbl-b (aa 36-427) (Homo sapiens, UniProt Q13191). In words: Cbl-b Biochemical Assay (TR-FRET). The settings on record: read-out: TR-FRET hCbl-b IC50. (In general: In TR-FRET formats the signal depends on donor and acceptor labels being close together.)
Test [2] concerns the target Recombinant human c-Cbl (aa 47-435) (Homo sapiens, UniProt P22681). In words: c-Cbl Biochemical Assay (TR-FRET). The settings on record: read-out: TR-FRET hcCbl IC50; hc-Cbl Biochemical Assay (TR-FRET).
The subject of test [3] is Jurkat (clone E6-1) cells with NFAT luciferase reporter. In words: Jurkat reporter assay (NFAT Luciferase). The settings on record: read-out: Jurkat NFAT EC50, anti-CD3 stimulation, 6 hr. The format is cell-based. On the technique in general: A reporter such as luciferase makes a cellular process visible.

Consider `COc1ccc([N+](=O)[O-])c(N)c1C(F)(F)F`, for which the pIC50 in test [1] and in test [2] was 4.30 to 5.00 each time.

On to `COCCOCCNCc1cc(C(F)(F)F)c2oc(-c3cccc(-c4ccc(F)cc4-c4nncn4C)c3)nc2c1`, for which the pIC50 in test [1] was greater than 6.70; in test [2], 6.00 to 6.70. In test [3], the pEC50 was 5.00 to 6.00.
